1 molecule from PubChem BioAssay AID575 (SRMLSC, 2007) can be followed below.

Only a part is listed here, and it is no random draw. Some tests of the compounds listed are not included; inactive here does not mean inactive elsewhere. Activity calls are given as the source filed them.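 The calls were made as follows: active = viability at or below 30% in both replicate assays; inconclusive = viability at or below 30% in just one of the two assays; inactive = the rest.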

This experiment in a line: HUVEC growth inhibition – cell-based, human, primary screen (AID 575).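 Also: 100% = median of untreated cell wells with 0.1% DMSO on each plate.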 To be noted: HUVEC proliferation, CellTiter-Glo luminescence, 72 h; at 10 µM; stronger effect = lower value. Put shortly: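 Material: primary human umbilical vein endothelial cells / Schedule: 72 h exposure, 37 °C, 5% CO2, 30 min RT equilibration / Signal: ATP-based CellTiter-Glo luminescent read / Read-out basis: percent of median DMSO-control luminescence / Control set: 32 DMSO-only cell-control wells (high), 32 MePR drug-control wells (low) per plate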
Turning to `O=C(OC1CN2CCC1CC2)C(CO)(c1ccccc1)c1ccccc1` (stereo unspecified), the viability is inactive: 103%.
